Data: patent US7939541B2, “Intermediates and a process employing the intermediates for the preparation of (3-trifluoromethylsulfonyl)-N-[4-methyl-3-(4-pyridin-3yl-pyrimidin-2ylamino)-phenyl]-benzamide” (Natco Pharma Limited, priority 2004, dated 2011)

What was measured:
Format in all cases: in vivo
Conditions in all cases: 10 mg/kg orally or ip for 27 days from day 15, day 42
[1] = tested on: Baf3 murine leukemia cells M351T; assay: Blast cell count in nude mice implanted with Baf3 M351T cells
[2] = tested on: Baf3 murine leukemia cells T315I; assay: Blast cell count in nude mice implanted with Baf3 T315I cells
[3] = tested on: Baf3 murine leukemia cells Wt; assay: Blast cell count in nude mice implanted with Baf3 Wt cells

Cc1nc(Nc2ncc(C(=O)Nc3c(C)cccc3Cl)s2)cc(N2CCN(CCO)CC2)n1 [reference compound]
blast cell count, response to treatment [1]: no significant decrease in blast cell count | blast cell count, response to treatment [2]: no significant decrease in blast cell count | blast cell count, response to treatment [3]: significant response
